This assay deals with MMP-9 (92 kDa, gelatinase B; type IV collagenase) (Homo sapiens, UniProt P14780). Nature of the assay: Assay of type IV collagenase inhibitors: activated MMP-9 with type IV collagenase activity kit substrate, fluorescent intensity. In kind it is biochemical. The following applies: concentration at which percent inhibition reaches 50%.
Where [1] appears, read: inhibition of type IV collagenase (MMP-9).
Setting [2] is: activated MMP-9, type IV collagenase activity kit substrate, fluorescent intensity.
Setting [3] is: activated MMP-9, type IV collagenase activity kit substrate, fluorescent intensity, tested form: hydrate.

The chains behind the UniProt entries cited, without tags or fusion partners. Residues count along the entry.
UniProt P14780, 107-707 limits assumed: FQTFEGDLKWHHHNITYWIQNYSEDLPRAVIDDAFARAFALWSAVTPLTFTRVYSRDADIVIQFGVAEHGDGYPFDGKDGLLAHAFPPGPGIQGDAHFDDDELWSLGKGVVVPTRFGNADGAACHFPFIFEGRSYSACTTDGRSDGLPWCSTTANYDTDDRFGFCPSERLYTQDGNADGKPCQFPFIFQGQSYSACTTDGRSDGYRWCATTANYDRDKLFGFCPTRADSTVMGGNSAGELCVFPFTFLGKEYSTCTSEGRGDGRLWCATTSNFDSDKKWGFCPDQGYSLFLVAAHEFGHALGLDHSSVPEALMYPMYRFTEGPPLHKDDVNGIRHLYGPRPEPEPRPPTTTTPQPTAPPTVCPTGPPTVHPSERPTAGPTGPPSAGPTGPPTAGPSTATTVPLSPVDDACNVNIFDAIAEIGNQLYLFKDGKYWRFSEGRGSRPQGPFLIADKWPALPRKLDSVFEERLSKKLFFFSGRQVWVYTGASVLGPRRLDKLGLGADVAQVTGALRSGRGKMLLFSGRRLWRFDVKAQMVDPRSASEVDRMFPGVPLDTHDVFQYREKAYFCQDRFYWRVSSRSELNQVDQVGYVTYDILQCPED

The structures appear in SMILES notation.

Turning to `O=C(O)[C@@H](Cc1ccccc1)NS(=O)(=O)c1ccc(C#Cc2ccc(F)cc2)cc1`, the IC50 – broadly, the concentration at which inhibition is half-maximal – under setting [1] is 161 nM. That is a sub-micromolar value.
The same measure, in the same setting: as for `CN(C)c1ccc(N=Nc2ccc(S(=O)(=O)N[C@H](Cc3ccccc3)C(=O)NO)cc2)cc1`, the figure is 5.3 nM; as for `Cc1ccc(C#Cc2ccc(S(=O)(=O)N[C@H](Cc3c[nH]c4ccccc34)C(=O)O)s2)cc1`, 23.4 nM.
On to `O=C(NO)[C@@H](Cc1ccccc1)NS(=O)(=O)c1ccc(F)cc1`, for which the IC50 under setting [2] came to 1300 nM.
For `Cc1ccc(C#Cc2ccc(S(=O)(=O)N[C@H](Cc3c[nH]c4ccccc34)C(=O)O)cc2)cc1` [1a-2-10], under setting [1], the IC50 amounted to 23 nM.
Under setting [2], `O=C(NO)[C@@H](COCc1ccccc1)NS(=O)(=O)c1ccc(-c2ccccc2)cc1` had an IC50 of 12.9 nM.
`CC(C)[C@@H](NS(=O)(=O)c1ccc(C#Cc2ccc(N)cc2)cc1)C(=O)O`: the IC50 under setting [1] was determined as 325 nM.
`CN(C)c1ccc(C#Cc2ccc(S(=O)(=O)N[C@H](Cc3c[nH]c4ccccc34)C(=O)O)cc2)cc1` yielded an IC50 under setting [1] of 98.1 nM.
The same measure, in the same setting: as for `COc1ccc(C#Cc2ccc(S(=O)(=O)N[C@H](Cc3c[nH]c4ccccc34)C(=O)O)cc2[N+](=O)[O-])cc1`, the figure is 3280 nM.
`O=C(O)[C@@H](Cc1ccccc1)NS(=O)(=O)c1ccc(-c2ccc(-c3ccccc3)cc2)cc1` registered an IC50 under setting [3] of 110 nM. This lies in the sub-micromolar range.
Turning to `O=C(NO)[C@@H](Cc1ccc(-c2ccccc2)cc1)NS(=O)(=O)c1ccc(-c2ccccc2)cc1`, the IC50 under setting [2] worked out at 34 nM. This lies in the double-digit nanomolar range.
For `CSc1ccc(-c2ccc(S(=O)(=O)N[C@H](Cc3c[nH]c4ccccc34)C(=O)O)cc2)cc1`, under setting [2], the IC50 came to 12.3 nM.
Under setting [1], `Cc1ccc(C#Cc2ccc(S(=O)(=O)N[C@@H](C(=O)O)C(C)C)s2)cc1` displayed an IC50 of 14.4 nM. This counts as double-digit nanomolar.
Regarding `CC(C)[C@@H](NS(=O)(=O)c1ccc(Oc2ccccc2)cc1)C(=O)O`, the IC50 under setting [2] came out at 1050 nM.
On to `CC(=O)n1cc(CC(NS(=O)(=O)c2ccc(Oc3ccccc3)cc2)C(=O)NO)c2ccccc21` (racemic), for which, under setting [1], the IC50 amounted to 6.1 nM. That is a single-digit nanomolar value.
`O=C(O)[C@@H](CO)NS(=O)(=O)c1ccc(-c2ccccc2)cc1` returned an IC50 under setting [2] of 1160 nM.
`O=C(O)[C@@H](Cc1c[nH]c2ccccc12)NS(=O)(=O)c1ccc(C#Cc2ccc(F)cc2)cc1` showed an IC50 under setting [1] of 88 nM.
With `O=C(O)[C@@H](Cc1ccccc1)NS(=O)(=O)c1ccc(N=Nc2ccccc2)cc1`, the IC50 under setting [1] was determined as 1200 nM.
The same measure, in the same setting: as for `O=C(O)[C@@H](Cc1c[nH]c2ccccc12)NS(=O)(=O)c1ccc(C#Cc2ccc(F)cc2)s1`, the figure is 224 nM.
As to `O=C(O)C(Cc1nc2ccccc2s1)NS(=O)(=O)c1ccc(-c2ccccc2)cc1` (racemic), the IC50 under setting [2] worked out at 4650 nM.
Still for that read-out and setting: next, `O=C(O)C(Cc1nc2ccccc2[nH]1)NS(=O)(=O)c1ccc(-c2ccccc2)cc1` (racemic): 2600 nM; `O=C(O)[C@@H](Cc1ccccc1)NS(=O)(=O)c1ccc(-c2ccc(F)cc2)cc1`: 1800 nM.
Molecule `O=C(NO)C(Cc1cccc2ccccc12)NS(=O)(=O)c1ccc(-c2ccccc2)cc1` (racemic) gave an IC50 under setting [2] of 41 nM.
`Cn1cc(CC(NS(=O)(=O)c2ccc(-c3ccccc3)cc2)C(=O)O)c2ccccc21` (racemic) had an IC50 under setting [2] of 520 nM. This IC50 is about 13-fold higher than that of the molecule before.
Turning to `COc1ccc(C#Cc2ccc(S(=O)(=O)N[C@H](Cc3c[nH]c4ccccc34)C(=O)O)s2)cc1`, the IC50 under setting [1] stood at 73.6 nM.
Turning to `O=C(NO)[C@@H](Cc1ccccc1)NS(=O)(=O)c1ccc(Br)cc1`, under setting [2], the IC50 was 410 nM.
Same read-out and setting: next, `O=C(O)C(Cc1ccc(F)cc1)NS(=O)(=O)c1ccc(-c2ccccc2)cc1` (racemic): 3700 nM.
Molecule `CC(C)[C@@H](NS(=O)(=O)c1ccc(C#Cc2ccc(F)cc2)s1)C(=O)O` returned an IC50 under setting [1] of 156 nM.
On the same count and under the same terms, as for `Cc1ccc(C#Cc2ccc(S(=O)(=O)N[C@H](Cc3ccccc3)C(=O)O)cc2)cc1`, the figure is 929 nM.
`Cc1ccc2[nH]cc(CC(NS(=O)(=O)c3ccc(Oc4ccccc4)cc3)C(=O)NO)c2c1` (racemic) yielded an IC50 under setting [2] of 3.5 nM.
`O=C(NO)C(Cc1ccc([N+](=O)[O-])cc1)NS(=O)(=O)c1ccc(-c2ccccc2)cc1` (racemic) gave an IC50 under setting [2] of 380 nM.
As to `Cc1ccc2[nH]cc(CC(NS(=O)(=O)c3ccc(-c4ccccc4)cc3)C(=O)O)c2c1` (racemic), the concentration for half-maximal inhibition (IC50) under setting [2] was found to be 205 nM.
Under setting [2], `O=C(NO)[C@@H](Cc1c[nH]c2ccccc12)NS(=O)(=O)c1ccc(Oc2ccccc2)cc1` came in with an IC50 of 247 nM.
Molecule `Cc1ccc(-c2ccc(S(=O)(=O)N[C@@H](C(=O)O)C(C)C)cc2)cc1` yielded an IC50 under setting [2] of 249 nM.
Under setting [1], `CC(=O)Oc1ccc(C#Cc2ccc(S(=O)(=O)N[C@H](Cc3c[nH]c4ccccc34)C(=O)O)cc2)cc1` showed an IC50 of 123 nM.
Molecule `O=C(NO)C(Cc1ccncc1)NS(=O)(=O)c1ccc(-c2ccccc2)cc1` (racemic) returned an IC50 under setting [2] of 134 nM.
The molecule `O=C(O)[C@@H](Cc1c[nH]c2ccccc12)NS(=O)(=O)c1ccc(C#Cc2ccccc2)s1` had an IC50 under setting [1] of 1110 nM.
In turn, `Cc1ccc(-c2ccc(S(=O)(=O)N[C@H](Cc3c[nH]c4ccccc34)C(=O)O)cc2)cc1` displayed an IC50 under setting [2] of 76 nM. This lies in the double-digit nanomolar range.
For the molecule `CC(C)(C)c1ccc(-c2ccc(S(=O)(=O)N[C@H](Cc3ccccc3)C(=O)O)cc2)cc1`, the IC50 under setting [1] worked out at 1910 nM.
`CSc1ccc(-c2ccc(S(=O)(=O)N[C@H](Cc3c[nH]c4ccccc34)C(=O)O)s2)cc1` gave an IC50 under setting [1] of 12.6 nM.
On to `O=C(O)[C@@H](Cc1ccc(-c2ccccc2)cc1)NS(=O)(=O)c1ccc(-c2ccccc2)cc1`, for which the IC50 under setting [2] worked out at 680 nM.
Consider `COc1ccc(C#Cc2ccc(S(=O)(=O)N[C@H](Cc3c[nH]c4ccccc34)C(=O)O)cc2)cc1`, for which, under setting [1], the IC50 is 10.9 nM.
Still for that read-out and setting: next, `COc1ccc(C#Cc2ccc(S(=O)(=O)N[C@@H](C(=O)O)C(C)C)s2)cc1`: 21.8 nM.
Molecule `O=C(O)C(CCc1ccccc1)NS(=O)(=O)c1ccc(-c2ccccc2)cc1` (racemic) gave an IC50 under setting [2] of 2000 nM. This lies in the single-digit micromolar range.
On to `COc1ccc(-c2ccc(S(=O)(=O)N[C@@H](C(=O)O)C(C)C)s2)cc1`, for which, under setting [1], the IC50 worked out at 96.5 nM.
Molecule `O=C(O)C(Cc1cccc2ccccc12)NS(=O)(=O)c1ccc(-c2ccccc2)cc1` (racemic) showed an IC50 under setting [2] of 810 nM.
`O=C(O)[C@@H](Cc1c[nH]c2ccccc12)NS(=O)(=O)c1ccc(Oc2ccc(O)cc2)cc1`: the IC50 under setting [1] was found to be 231 nM.
Still for that read-out and setting: next, `CC(C)[C@@H](NS(=O)(=O)c1ccc(C#Cc2ccc([N+](=O)[O-])cc2)cc1)C(=O)O`: 133 nM.
On the same count and under the same terms, next, `Cc1ccc(-c2ccc(S(=O)(=O)N[C@H](Cc3ccccc3)C(=O)O)s2)cc1`: 244 nM.
Regarding `O=C(NO)[C@@H](CC1CCCCC1)NS(=O)(=O)c1ccc(-c2ccccc2)cc1`, the IC50 under setting [2] worked out at 27 nM.
Take `COc1ccc(C#Cc2ccc(S(=O)(=O)N[C@@H](C(=O)O)C(C)C)cc2)cc1`: under setting [1], the IC50 stood at 2980 nM.
Under setting [2], `O=C(NO)C(CCc1ccccc1)NS(=O)(=O)c1ccc(-c2ccccc2)cc1` (racemic) returned an IC50 of 2000 nM.
For `O=C(O)[C@@H](Cc1c[nH]c2ccccc12)NS(=O)(=O)c1ccc(-c2ccc(F)cc2)s1`, the IC50 under setting [1] was 873 nM.
As for `O=C(Nc1ccccc1)Nc1ccc(S(=O)(=O)N[C@H](Cc2ccccc2)C(=O)NO)cc1`, under setting [1], the IC50 is 940 nM.
In turn, `O=C(O)C(Cc1cscn1)NS(=O)(=O)c1ccc(-c2ccccc2)cc1` (racemic) gave a 50% inhibitory concentration (IC50) under setting [2] of 2600 nM. That is a single-digit micromolar value.
Still for that read-out and setting: as for `Cn1cc(CC(NS(=O)(=O)c2ccc(-c3ccccc3)cc2)C(=O)NO)c2ccccc21` (racemic), the figure is 10.8 nM; as for `Cn1cc(CC(NS(=O)(=O)c2ccc(Oc3ccccc3)cc2)C(=O)O)c2ccccc21` (racemic), 1900 nM.
The same measure, in the same setting: as for `Cc1ccc(-c2ccc(S(=O)(=O)N[C@H](Cc3ccccc3)C(=O)O)cc2)cc1`, the figure is 329 nM; as for `COc1ccc2[nH]cc(CC(NS(=O)(=O)c3ccc(-c4ccccc4)cc3)C(=O)O)c2c1` (racemic), 2250 nM; as for `O=C(NO)C(Cc1c[nH]c2ccc(F)cc12)NS(=O)(=O)c1ccc(-c2ccccc2)cc1` (racemic), 28.2 nM.
Still for that read-out and setting: next, `O=C(NO)[C@@H](CC(F)(F)F)NS(=O)(=O)c1ccc(-c2ccccc2)cc1`: 28 nM.
Regarding `O=C(NO)[C@H](NS(=O)(=O)c1ccc(-c2ccccc2)cc1)c1ccccc1`, the IC50 under setting [2] worked out at 73 nM.
Still for that read-out and setting: next, `O=C(NO)C(Cc1nc2ccccc2s1)NS(=O)(=O)c1ccc(-c2ccccc2)cc1` (racemic): 4.1 nM.
`O=C(O)[C@@H](Cc1c[nH]c2ccccc12)NS(=O)(=O)c1ccc(C#Cc2ccccc2[N+](=O)[O-])s1` yielded an IC50 under setting [1] of 1530 nM. In other words, the single-digit micromolar range.
Still for that read-out and setting: as for `O=C(O)[C@@H](Cc1c[nH]c2ccccc12)NS(=O)(=O)c1ccc(C#Cc2ccc(O)cc2)cc1`, the figure is 75.9 nM.
As to `Cn1cc(CC(NS(=O)(=O)c2ccc(Oc3ccccc3)cc2)C(=O)NO)c2ccccc21` (racemic), the IC50 under setting [2] is 3.7 nM.
Same read-out and setting: as for `O=C(NO)[C@@H](CO)NS(=O)(=O)c1ccc(-c2ccccc2)cc1`, the figure is 213 nM.
Take `COc1ccc(-c2ccc(S(=O)(=O)N[C@H](Cc3c[nH]c4ccccc34)C(=O)O)cc2)cc1`: the IC50 under setting [3] is 18 nM.
For the molecule `COc1ccc(C#Cc2ccc(S(=O)(=O)N[C@H](Cc3ccccc3)C(=O)O)s2)cc1`, under setting [1], the IC50 was determined as 24.3 nM.
The molecule `O=C(NO)C(Cc1ccc(F)cc1)NS(=O)(=O)c1ccc(-c2ccccc2)cc1` (racemic) gave an IC50 under setting [2] of 110 nM.
The molecule `COc1ccc(-c2ccc(S(=O)(=O)N[C@H](Cc3c[nH]c4ccccc34)C(=O)O)s2)cc1` yielded an IC50 under setting [1] of 40 nM.

Values taken from patent publication US6441021B1, “Sulfonated amino acid derivatives and metalloproteinase inhibitors containing the same” (Shionogi & Co., Ltd., priority 1996, dated 2002).
